# PubChem BioAssay AID1259251 (The Scripps Research Institute Molecular Screening Center, 2017)
# Chains of the proteins cited; added tags and fusions are not shown. Lines headed by an entry give the natural chain unless they say otherwise; changes in a name come on top.
# UniProt O75385: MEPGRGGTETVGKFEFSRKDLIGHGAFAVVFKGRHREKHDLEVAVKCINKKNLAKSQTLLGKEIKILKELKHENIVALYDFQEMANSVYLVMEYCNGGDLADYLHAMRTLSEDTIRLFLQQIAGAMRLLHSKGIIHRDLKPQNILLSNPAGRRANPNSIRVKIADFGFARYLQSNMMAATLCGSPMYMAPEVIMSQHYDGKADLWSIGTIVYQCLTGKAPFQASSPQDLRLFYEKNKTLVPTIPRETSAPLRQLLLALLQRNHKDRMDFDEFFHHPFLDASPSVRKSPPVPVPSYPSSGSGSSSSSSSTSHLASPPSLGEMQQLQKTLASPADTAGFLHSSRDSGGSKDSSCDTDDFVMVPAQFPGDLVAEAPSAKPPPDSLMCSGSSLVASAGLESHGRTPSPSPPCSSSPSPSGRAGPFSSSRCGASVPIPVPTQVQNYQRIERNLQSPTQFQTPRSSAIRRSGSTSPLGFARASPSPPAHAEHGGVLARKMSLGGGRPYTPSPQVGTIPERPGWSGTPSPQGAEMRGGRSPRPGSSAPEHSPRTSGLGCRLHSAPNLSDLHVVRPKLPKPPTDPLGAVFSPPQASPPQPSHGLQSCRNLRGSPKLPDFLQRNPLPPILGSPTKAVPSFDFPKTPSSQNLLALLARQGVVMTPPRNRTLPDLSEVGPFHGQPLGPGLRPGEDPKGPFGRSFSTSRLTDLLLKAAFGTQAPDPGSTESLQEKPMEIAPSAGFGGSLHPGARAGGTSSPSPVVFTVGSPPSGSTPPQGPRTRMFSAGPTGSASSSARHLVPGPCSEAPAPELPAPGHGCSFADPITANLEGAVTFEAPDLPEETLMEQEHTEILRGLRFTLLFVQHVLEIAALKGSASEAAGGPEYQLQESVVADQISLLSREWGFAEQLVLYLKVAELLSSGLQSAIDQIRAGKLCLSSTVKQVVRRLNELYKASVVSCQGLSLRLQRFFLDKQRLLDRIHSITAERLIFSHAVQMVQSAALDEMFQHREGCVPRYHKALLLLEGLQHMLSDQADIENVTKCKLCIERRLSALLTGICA
# This is a selection; strong and weak results do not stand in their true shares. Calls of active or inactive are those of the source. No stated cut-off is given here; in the data, active means inhibition above about 43%; inactive means the rest.
# Molecular target: Serine/threonine-protein kinase ULK1 (Homo sapiens) (UniProt O75385)
# Assay: ULK1 kinase inhibitors, primary screen, biochemical, AlphaScreen (AID 1259251);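 further: 0% = median of compound wells and 100% = no enzyme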
# Details: AlphaScreen Atg13 phosphorylation by ULK1, luminescence; at 5.96 µM; hits give high values
row,Compound,inhibition
1,O=P1(N(CCCl)CCCl)OCCCN1CCCl (stereo not given),inactive: 16.2%
2,NC(=O)Nc1ccc([As](=O)(O)O)cc1,inactive: 9.97%
3,CN[C@@H]1C[C@H]2O[C@@](C)([C@@H]1OC)n1c3ccccc3c3c4c(c5c6ccccc6n2c5c31)C(=O)NC4,inactive: -3.03%
4,CN(C(=O)Cc1ccc(Cl)c(Cl)c1)[C@H]1CC[C@@]2(CCCO2)C[C@@H]1N1CCCC1,inactive: -4.17%
5,O=C(NNc1ccc([N+](=O)[O-])cc1[N+](=O)[O-])c1cccc([N+](=O)[O-])c1,inactive: 18.8%
6,O=C(OC1CN2CCC1CC2)c1ccccc1 (stereo not given),inactive: 3.37%
7,O=C(Nc1ccccc1[N+](=O)[O-])c1ccc([N+](=O)[O-])cc1[N+](=O)[O-],inactive: -17.1%
8,O=P(O)(O)F,inactive: 10.7%
9,O=P(Nc1ccccn1)(OCC(F)(F)F)Oc1ccccc1 (stereo not given),inactive: 10.9%
10,O=[N+]([O-])c1cc(/C=N/N=C/c2cc([N+](=O)[O-])cc([N+](=O)[O-])c2O)c(O)c([N+](=O)[O-])c1,inactive: 25.5%
